Laboratory results as given in ChEMBL document CHEMBL5625223 (Eur J Med Chem, 2023).

Biological target: Adenosine receptor A2a (Homo sapiens) (UniProt P29274)
Experiment: Displacement of […] from human A2AR expressed in HEK cells at 10 uM relative to control
Assay type: cell-based
Details: filed as agonist

Work on `Clc1nc(NCC2CC2)c2nc[nH]c2n1` yielded an Activity of 67%.
